Experimental findings from ChEMBL document CHEMBL1129961, “Design, synthesis, and antiviral evaluation of 2-chloro-5,6-dihalo-1-beta-D-ribofuranosylbenzimidazoles as potential agents for human cytomegalovirus infections” (J Med Chem, 1997) are described below.

pIC50: −log10 of the molar value. A value given as a limit tells only on which side of the number the result lay.

The test system of the assay is HFF. As to the kind of experiment: Visual cytotoxicity was scored on HFF cells at time of HCMV plaque enumeration. In kind it is functional, cell-based, Homo sapiens. The method in brief: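 Stationary HFF cells from the HCMV plaque assay, not affected by virus, inspected microscopically for cytotoxicity when plaques were counted after 7 days at 37 °C with compound at four to eight concentrations.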

The term pIC50 denotes the negative decadic logarithm of the IC50, by convention in mol/L. Read a low pIC50 as a large IC50.

For `O=[N+]([O-])c1cc2nc(Cl)[nH]c2cc1[N+](=O)[O-]`, the pIC50 is < 4.00.
